Tests used:
Rattus norvegicus = species on record: Rattus norvegicus; assay: Reduction potential (SCE) determined by differential pulse polarography of the sulfoxides […]
[1] = Concentration required to reduce cell survival to 10% of controls using V-79 cells in the clonogenic assay, in anaerobic conditions (hypoxic conditions)
[2] = Concentration required to reduce cell survival to 10% of controls using V-79 cells in the clonogenic assay, in aerobic conditions

Compound: C[S+]([O-])c1ccc(N(CCCl)CCCl)cc1 (stereo not drawn)
- E (Rattus norvegicus): 2.6 -V
- IC90 [1]: 340 µM
- IC90 [2]: 944 µM

Reference: ChEMBL document CHEMBL1133503 (J Med Chem, 2000)
